Laboratory results: IntAct's records for PubMed 25605870

B1: Apoptosis-associated speck-like protein containing a CARD (Homo sapiens), Q9ULZ3 (parent)
chain: MGRARDAILDALENLTAEELKKFKLKLLSVPLREGYGRIPRGALLSMDALDLTDKLVSFYLETYGAELTANVLRDMGLQEMAGQLQAATHQGSGAAPAGIQAPPQSAAKPGLHFIDQHRAALIARVTNVEWLLDALYGKVLTDEQYQAVRAEPTNPSKMRKLFSFTPAWNWTCKDLLLQALRESQSYLVEDLERS

Variants of: B1
Conditions: with casp1_human CASP1, P29466

Effect of a mutation on the interaction, decreasing interaction strength:
MGRARDAILDALENLTAEELKKFKLKLLSVPLREGYGRIPRGALLSMDALDLTDKLVSFYLETYGAELTANVLRDMGLQEMAGQLQAATHQGSGAAPAGIQAPPQSAAKPGLHFIDQHRAALIARVTNVEWLLDALYGKVLTDEQFQAVRAEPTNPSKMRKLFSFTPAWNWTCKDLLLQALRESQSYLVEDLERS [Y146F]
MGRARDAILDALENLTAEELKKFKLKLLSVPLREGYGRIPRGALLSMDALDLTDKLVSFYLETYGAELTANVLRDMGLQEMAGQLQAATHQGSGAAPAGIQAPPQSAAKPGLHFIDQHRAALIARVTNVEWLLDALYGKVLTDEQFQAVRAEPTNPSKMRKLFSFTPAWNWTCKDLLLQALRESQSFLVEDLERS [Y146F;Y187F]
MGRARDAILDALENLTAEELKKFKLKLLSVPLREGYGRIPRGALLSMDALDLTDKLVSFYLETYGAELTANVLRDMGLQEMAGQLQAATHQGSGAAPAGIQAPPQSAAKPGLHFIDQHRAALIARVTNVEWLLDALYGKVLTDEQYQAVRAEPTNPSKMRKLFSFTPAWNWTCKDLLLQALRESQSFLVEDLERS [Y187F]
